Columns and labels:
[1] = tested on: C21 cells; test: Mouse xenograft study with C21 tumor cells; assay type: in vivo; conditions: female NSG mice xenografted with C21 cells; after 16 days of treatment
[2] = tested on: HER1, HER3 and c-Met pathways; test: CELx test of multiple pathways simultaneously (EGF, NRG1, HGF in combination), impedance biosensor; assay type: cell-based, human
Text: Biosensor and transducer: A 96-well impendence E-Plate (ACEA, San Diego, CA) was placed onto an xCELLigence RTCA MP Station impendence biosensor (ACEA, San Diego, CA). The biosensor measured simultaneously the impedance of every well. The change in impedance for a particular well is proportional to the number of cells and type of attachment the cells have with the impedance microplate. Changes in impedance indicate a response to perturbation of these small cell populations. Coatings: The 96-E-Plate were wells were coated with fibronectin and or collagen. Collagen is purchased from Advanced BioMatrix (Carlsbad, CA) and fibronectin from Sigma-Aldrich (St. Louis, MO). Tissue and cell samples: Six samples of human tumor cells from breast cancer were studied (C1815, C1596, C1838, C135, C42, C264). Any biomarkers that are used to guide selection of targeted therapy are listed in Table 22 for each patient if they were present. Signaling Pathways activator agent and targeted therapeutic pairs: In each human tumor cell sample, gross signaling activity of the HER1, HER3 and c-Met pathways initiated by three activator agents (EGF, NRG1, HGF) in combination was quantified. […] Each of the signaling pathway activator agents is a well-characterized and specific agonist of its associated signaling pathway. […] The fifth targeted therapeutic tested, taselisib, is an inhibitor that binds to PI3k, which downstream of the HER family and c-Met receptors. Other Reagents: Standard media, antibiotics (e.g. penicillin, streptomycin), and other buffers were purchased and used as delivered from ATCC (Manassas, VA, USA) or Life Technologies (Grand Island, NY). Procedure:
For each test of a patient cell sample with a signaling pathway activator(s) and targeted therapeutic agent(s), six or eight wells were seeded with approximately 15,000 cells in 120 uL culture media; six wells were seeded when only a single drug was evaluated and eight wells were seeded when two drugs were evaluated. When only a single drug was evaluated, 20 uL of the targeted therapeutic agent was added to two wells of each patient's cells and the final concentration of the therapeutic agent in the two wells with the single therapeutic agent was 500 nanomolar. When two therapeutic agents were evaluated, two wells of patient cells received 20 uL of the combined therapeutic agents at a concentration of 500 nanomolar each and an additional two wells of patient cells received 20 uL of the combined therapeutic agents at a concentration of 50 nanomolar each. Twenty microliters of standard media were added to the other four wells for each patient 18 hours in advance of addition of the signaling pathway activator agent(s). Signaling pathway stimulation was initiated with the addition of 20 ul of the signaling pathway activator agent(s) in the two or four wells that received a targeted therapeutic agent(s) and two additional wells for each patient's set of cells. The impedance recording of attachment and adhesion change was performed at 37° C., 5% CO2. Data was recorded on a continuous basis throughout the test, where the data presented if from the initial baseline level of cell attachment compared to the subsequent effects following the targeted therapeutic agent(s) and the signaling pathway activator agent(s) additions on the nine different patient samples.
For each of the six patient samples, three different signaling pathways (HER1, HER3, c-Met) were activated simultaneously. The output value represents the difference between the amount of cell adhesion change resulting from addition of the signaling pathway activator agent(s) and the amount of cell adhesion change resulting from addition of the targeted therapeutic agent(s).

`CN1CCC(COc2cnc(-c3cccc(Cn4nc(-c5cccc(C#N)c5)ccc4=O)c3)nc2)CC1` [tepotinib] was tested, and the “tumor volume reduction relative to the control” value [1] was 10%, the “Output value (cell adhesion change, activator agents minus targeted therapeutic agent(s))” value ([2]; breast cancer patient sample C42, agent(s) 500 nM each) was 223 and the “Output value (cell adhesion change, activator agents minus targeted therapeutic agent(s))” value ([2]; breast cancer patient sample C135, agent(s) 500 nM each) was 73. For the same molecule, the “Output value (cell adhesion change, activator agents minus targeted therapeutic agent(s))” value ([2]; breast cancer patient sample C264, agent(s) 500 nM each) was 172, the “Output value (cell adhesion change, activator agents minus targeted therapeutic agent(s))” value ([2]; breast cancer patient sample C1596, agent(s) 500 nM each) was 330 and the “Output value (cell adhesion change, activator agents minus targeted therapeutic agent(s))” value ([2]; breast cancer patient sample C1815, agent(s) 500 nM each) was 473. The “Output value (cell adhesion change, activator agents minus targeted therapeutic agent(s))” value ([2]; breast cancer patient sample C1838, agent(s) 500 nM each) was 12.

Source: patent US12320799B2, “Methods of measuring signaling pathway activity for selection of therapeutic agents” (Celcuity Inc., priority 2017, dated 2025)
